# Apparent affinities of Ab-14 variants for a coronavirus HR2 peptide

The measurements come from Engelhart et al. 2022 (doi:10.1038/s41597-022-01779-4) through the FLAb antibody collection.

Binding partner: SARS-CoV-2 spike HR2 peptide, sequence PDVDLGDISGINAS.

Ab-14 is the parent antibody, in scFv form: VH, then the linker GGGGSGGGGSGGGGS, then VL. The heavy chain is unchanged in all variants.
VH: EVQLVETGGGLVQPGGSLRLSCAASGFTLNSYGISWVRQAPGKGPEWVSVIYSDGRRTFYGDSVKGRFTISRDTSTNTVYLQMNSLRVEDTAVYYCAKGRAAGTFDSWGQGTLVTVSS
VL: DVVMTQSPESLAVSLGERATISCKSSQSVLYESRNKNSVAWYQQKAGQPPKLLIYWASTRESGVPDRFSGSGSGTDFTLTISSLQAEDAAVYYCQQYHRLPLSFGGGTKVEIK

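Variants in AAYL50 differ from the parent at up to three CDR positions; double and triple changes were sampled at random. Affinity was read by AlphaSeq, a pooled yeast mating assay with surface-displayed partners. Mating (16 h, 30 °C) was followed by selection of diploids and sequencing of their barcodes. The ratio of observed to expected reads was calibrated, replicate by replicate, on BCL2-family standards whose Kd was known from biolayer interferometry. Each pool was mated in three replicate cultures.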

Sequences are complete VL domains.
Numbers give log10(Kd / nM), so 0 is 1 nM and 3 is 1 µM. Smaller is tighter.
The mean shown is taken over the replicates in which the pair was detected.
An entry "nd" has no value in the source: the pair was not observed among the diploids in that replicate. This suggests poor binding but is not conclusive.

VL,"log10 Kd, replicates","mean, log10 nM",control signals
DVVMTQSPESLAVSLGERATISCKSSQSVLYESRQKNSVAWYQQKAGQPPKLLIYWASTRESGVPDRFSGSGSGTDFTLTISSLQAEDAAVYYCQQYHWFPLSFGGGTKVEIK,nd / nd / nd,nd,0/9
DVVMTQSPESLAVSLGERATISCKSWQSVLYPSRNKNSVAWYQQKAGQPPKLLIYWASTRESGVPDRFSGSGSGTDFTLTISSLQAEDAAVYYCQQYHRVPLSFGGGTKVEIK,4.36 / nd / nd,4.36,3/9 (4.32)
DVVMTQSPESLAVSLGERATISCKSSQSVLYMSRNKNSVAWYQQKAGQPPKLLIYWASTREKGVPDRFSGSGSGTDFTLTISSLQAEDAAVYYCQQFHRLPLSFGGGTKVEIK,2.54 / 2.11 / 2.32,2.32,6/9 (4.17)
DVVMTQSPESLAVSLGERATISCKSSYSVLYESRNWNSVAWYQQKAGQPPKLLIYWASTRESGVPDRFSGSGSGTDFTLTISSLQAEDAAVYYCQQYHRLPLSFGGGTKVEIK,1.06 / 1.13 / 1.17,1.12,7/9 (4.69)
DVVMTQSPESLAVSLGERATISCKSSQLVLYESRNCNSLAWYQQKAGQPPKLLIYWASTRESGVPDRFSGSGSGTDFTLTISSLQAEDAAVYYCQQYHRLPLSFGGGTKVEIK,3.59 / 2.88 / 3.16,3.21,4/9 (4.48)
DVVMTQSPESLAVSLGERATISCKSSQSVLYESRNKNWVAWYQQKAGQPPKLLIYWASDRESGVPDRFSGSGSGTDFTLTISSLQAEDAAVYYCQQYHRLYLSFGGGTKVEIK,3.31 / 4.12 / 4.24,3.89,4/9 (4.11)
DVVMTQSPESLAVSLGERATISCKSSQSVLYESRNKNSCAWYQQKAGQPPKLLIYWASTRESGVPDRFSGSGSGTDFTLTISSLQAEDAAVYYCDQYHRLTLSFGGGTKVEIK,nd / nd / nd,nd,1/9 (2.90)
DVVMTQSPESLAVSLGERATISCKSSDSPLYESRNKNSVAWYQQKAGQPPKLLIYWASTRESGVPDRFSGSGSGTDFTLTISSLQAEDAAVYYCQQYHRLPLSFGGGTKVEIK,0.56 / 0.68 / 0.70,0.65,2/9 (3.43)
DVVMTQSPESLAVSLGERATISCKSSQSVLYETRNKNSVAWYQQKAGQPPKLLIYWASTRESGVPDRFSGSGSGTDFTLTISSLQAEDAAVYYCQNYHRLPESFGGGTKVEIK,nd / 2.84 / nd,2.84,1/9 (3.30)
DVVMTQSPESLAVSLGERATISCKSSQSVLYRSRNKNSVAWYQQKAGQPPKLLIYWASTREGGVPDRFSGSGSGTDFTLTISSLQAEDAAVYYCQQYHTLPLSFGGGTKVEIK,nd / nd / nd,nd,0/9
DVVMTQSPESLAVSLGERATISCKSSQSVLYESRNKNWVAWYQQKAGQPPKLLIYWHSTRESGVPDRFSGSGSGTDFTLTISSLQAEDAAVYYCQQYIRLPLSFGGGTKVEIK,nd / 4.35 / nd,4.35,3/9 (3.91)
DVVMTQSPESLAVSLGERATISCKSSQSVLYEKINKNSVAWYQQKAGQPPKLLIYWASTRESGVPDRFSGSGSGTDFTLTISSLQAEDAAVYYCYQYHRLPLSFGGGTKVEIK,nd / nd / nd,nd,0/9
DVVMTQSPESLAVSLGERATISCKSSQSVLYHSRNKCSVAWYQQKAGQPPKLLIYWASTRESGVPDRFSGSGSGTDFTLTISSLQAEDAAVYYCHQYHRLPLSFGGGTKVEIK,4.37 / nd / nd,4.37,1/9 (4.60)
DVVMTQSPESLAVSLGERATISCKSSQSVLYESRCKNSVAWYQQKAGQPPKLLIYAASTRESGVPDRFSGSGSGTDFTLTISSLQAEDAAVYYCQQYHRLPLSFGGGTKVEIK,0.68 / 0.79 / 0.86,0.78,1/9 (5.15)
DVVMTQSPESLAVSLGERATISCKSSQSVIYESRNKNQVAWYQQKAGQPPKLLIYWASTRESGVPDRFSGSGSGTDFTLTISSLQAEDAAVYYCQQYHRLLLSFGGGTKVEIK,1.67 / 1.64 / 1.89,1.73,1/9 (3.40)
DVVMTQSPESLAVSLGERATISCKSSQSVLYHCRNKNSVAWYQQKAGQPPKLLIYWASTRESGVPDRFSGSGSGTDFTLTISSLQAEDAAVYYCQQYHRLRLSFGGGTKVEIK,nd / nd / nd,nd,1/9 (3.52)
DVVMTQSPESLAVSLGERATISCKSSQSVLYESGFKKSVAWYQQKAGQPPKLLIYWASTRESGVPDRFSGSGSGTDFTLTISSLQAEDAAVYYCQQYHRLPLSFGGGTKVEIK,1.69 / 1.28 / 1.76,1.58,1/9 (3.16)
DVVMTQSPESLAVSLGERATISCKSSQSVLYESRNKNSVAWYQQKAGQPPKLLIYWASTRESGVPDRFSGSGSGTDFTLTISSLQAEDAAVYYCGQYHRMPLSFGGGTKVEIK,nd / nd / nd,nd,0/9
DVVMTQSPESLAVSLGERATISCKSGQSVLYESRNKNSVAWYQQKAGQPPKLLIYAASTRESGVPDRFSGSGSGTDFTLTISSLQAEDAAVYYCQSYHRLPLSFGGGTKVEIK,nd / nd / nd,nd,0/9
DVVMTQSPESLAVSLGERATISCKSSQSVLYESRNRCSVAWYQQKAGQPPKLLIYWASTRESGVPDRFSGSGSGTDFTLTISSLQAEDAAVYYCQQYHRDPLSFGGGTKVEIK,2.72 / 3.93 / 3.48,3.37,4/9 (3.84)
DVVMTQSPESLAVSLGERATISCKSSQSVYYESRQKHSVAWYQQKAGQPPKLLIYWASTRESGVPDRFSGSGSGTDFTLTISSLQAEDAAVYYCQQYHRLPLSFGGGTKVEIK,0.60 / 0.90 / 0.74,0.75,1/9 (4.31)
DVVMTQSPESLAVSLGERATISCKSSQSVLLESRNKNSVAWYQQKAGQPPKLLIYWASTRESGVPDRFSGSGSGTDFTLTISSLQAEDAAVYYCDQEHRLPLSFGGGTKVEIK,0.70 / 0.85 / 0.87,0.81,2/9 (3.91)

Excerpt, the final 2 entries:

VL,"log10 Kd, replicates","mean, log10 nM",control signals
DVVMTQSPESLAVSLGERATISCKSSQSVYYESRQKHSVAWYQQKAGQPPKLLIYWASTRESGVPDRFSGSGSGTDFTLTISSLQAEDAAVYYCQQYHRLPLSFGGGTKVEIK,0.60 / 0.90 / 0.74,0.75,1/9 (4.31)
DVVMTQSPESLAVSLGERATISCKSSQSVLLESRNKNSVAWYQQKAGQPPKLLIYWASTRESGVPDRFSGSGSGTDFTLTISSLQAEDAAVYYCDQEHRLPLSFGGGTKVEIK,0.70 / 0.85 / 0.87,0.81,2/9 (3.91)

Empty control strains, which show no peptide, gave a signal in 18% of pairings with library AAYL50; the median was 4.19 and 95% of these signals were weaker than 2.99. No background was subtracted. The control count says in how many pairings with the empty strains this scFv gave a signal, with their mean in brackets.